Assay results as given in PubChem BioAssay AID803 (The Scripps Research Institute Molecular Screening Center, 2007).
This is a selection; strong and weak results do not stand in their true shares. Active and inactive are the calls of the source. Cut-off read from the data, not from the text of the source: active = activation above about 5% (passing the limit was not always enough); inactive = the rest.

Amino acid sequences for entries named in this document (tags omitted). A change or cut given only in a name is not applied to a line headed by its entry.
UniProt O43603: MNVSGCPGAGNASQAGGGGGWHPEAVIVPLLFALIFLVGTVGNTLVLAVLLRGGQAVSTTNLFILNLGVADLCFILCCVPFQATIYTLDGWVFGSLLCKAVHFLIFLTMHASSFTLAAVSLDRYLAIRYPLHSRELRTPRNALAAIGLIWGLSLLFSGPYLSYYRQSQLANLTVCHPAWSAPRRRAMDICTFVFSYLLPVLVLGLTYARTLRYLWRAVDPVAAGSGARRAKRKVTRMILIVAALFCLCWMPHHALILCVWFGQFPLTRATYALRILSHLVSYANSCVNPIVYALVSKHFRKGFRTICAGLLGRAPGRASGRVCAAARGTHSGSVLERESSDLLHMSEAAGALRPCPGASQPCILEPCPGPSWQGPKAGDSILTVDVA

Target: Galanin receptor type 2 (Homo sapiens) (UniProt O43603)
Test: human galanin receptor 2 activators – cell-based, primary screen (AID 803);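 note: 0% = vehicle buffer wells and 100% = reference agonist at full effect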
Conditions: GALR2-expressing cells, agonist activation read-out; at 5.6 µM; stronger effect = higher value

| SMILES | activation |
| --- | --- |
| CCC(C)N(CC(C)C)C(=S)SC(NC(C)=O)C(Cl)(Cl)Cl (stereo unspecified) | active: 52.1% |
